Results published in patent US9624241B2 (Incyte Corporation, priority 2013, dated 2017).

Tests used:
Type in all cases: binding
BRD4-BD1 [1] = target: T1, BRD4-BD1 (Homo sapiens (Human), UniProt O60885); test: BRD4 AlphaScreen Assay (Example A2), BRD4-BD1; details: read-out: BRD4 BD-1 enzyme IC50
Protocol: (§1) BRD4-BD1 and BRD4-BD2 assays were conducted in white 384-well polystyrene plate in a final volume of 40 μL for BD1 and 60 μL for BD2. Inhibitors were first serially diluted in DMSO and added to the plate wells before the addition of other reaction components. […] The assays were carried out at room temperature in the assay buffer (50 mM Tris-HCl, pH 7.5, 0.01% Tween-20, 0.01% BSA, 5 mM DTT), containing 50 nM Biotin-labeled tetra-acetylated histone H4 peptide (H4Ac4) and BRD4-BD1 or BRD4-BD2 protein at concentration less than 1 nM. […] After plate sealing, the plate was incubated in the dark at room temperature for 75 min. before reading on a PHERAstar FS plate reader (BMG Labtech). IC50 determination was performed by fitting the curve of percent control activity versus the log of the inhibitor concentration using the GraphPad Prism 5.0 software.

BRD4-BD2 [2] = target: T2, BRD4-BD2 (Homo sapiens (Human), UniProt O60885); test: BRD4 AlphaScreen Assay (Example A2), BRD4-BD2; details: read-out: BRD4 BD-2 enzyme IC50
Protocol: as §1

BRD4-BD1 [3] = target: T1, BRD4-BD1; test: BRD4 AlphaScreen Assay (Example A1), BRD4-BD1; details: Assay A1, 3.8 nM BRD4-BD1, 50 nM H4Ac4 peptide; read-out: BRD4 BD-1 enzyme IC50
Protocol: (§2) BRD4-BD1 and BRD4-BD2 assays were conducted in white 384-well polystyrene plate in a final volume of 20 μL for BD1 and 40 μL for BD2. Inhibitors were first serially diluted in DMSO and added to the plate wells before the addition of other reaction components. […] After plate sealing, the plate was incubated in the dark at room temperature for 75 min. before reading on a PHERAstar FS plate reader (BMG Labtech). IC50 determination was performed by fitting the curve of percent control activity versus the log of the inhibitor concentration using the GraphPad Prism 5.0 software.

BRD4-BD2 [4] = target: T2, BRD4-BD2; test: BRD4 AlphaScreen Assay (Example A1), BRD4-BD2; details: Assay A1, 20 nM BRD4-BD2, 50 nM H4Ac4 peptide; read-out: BRD4 BD-2 enzyme IC50
Protocol: as §2

[5] = Assay A2, AlphaScreen, BRD4-BD1
[6] = Assay A2, AlphaScreen, BRD4-BD2

| IC50 (BRD4-BD2 [2]; [6]) [nM] | SMILES | IC50 (BRD4-BD1 [1]; [5]) [nM] | also measured |
| --- | --- | --- | --- |
| < 100 | CCOC(=O)C1Oc2c(-c3c(C)noc3C)ccc3[nH]c(=O)n(c23)C1c1ccccn1 (stereo not shown) [Example 20, Ethyl 7-(3,5-dimethylisoxazol-4-yl)-2-oxo-4-pyridin-2-yl-1,2,4,5-tetrahydroimidazo[1,5,4-de][1,4]benzoxazine-5-carboxylate] | 100 to 1000 | – |
| – | Cc1noc(C)c1-c1ccc2nc(N3CC[C@@H](O)C3)n3c2c1OC[C@@H]3c1cccnc1 [Example 168A, (3R)-1-[(4S)-7-(3,5-Dimethylisoxazol-4-yl)-4-pyridin-3-yl-4,5-dihydroimidazo[1,5,4-de][1,4]benzoxazin-2-yl]pyrrolidin-3-ol] | – | IC50 (BRD4-BD1 [1]): < 100 nM; IC50 (BRD4-BD2 [2]): < 100 nM |
| < 100 | Cc1noc(C)c1-c1ccc2[nH]c(=O)n3c2c1OCC3c1cccnc1C(=O)N(C)C (stereo not shown) [Example 129, 3-[7-(3,5-Dimethylisoxazol-4-yl)-2-oxo-1,2,4,5-tetrahydroimidazo[1,5,4-de][1,4]benzoxazin-4-yl]-N,N-dimethylpyridine-2-carboxamide] | 100 to 1000 | – |
| 100 to 1000 | Cc1noc(C)c1-c1ccc2[nH]c(=O)n3c2c1OC(C(=O)N(C)C)C3c1ccccc1 (single isomer, unassigned) [Example 47A, 7-(3,5-Dimethylisoxazol-4-yl)-N,N-dimethyl-2-oxo-4-phenyl-1,2,4,5-tetrahydroimidazo [1,5,4-de][1,4]benzoxazine-5-carboxamide] | 100 to 1000 | – |
| – | Cc1noc(C)c1-c1ccc2nc(C3=CCNCC3)n3c2c1OC[C@@H]3c1ccccn1 [Example 104, (4S)-7-(3,5-dimethylisoxazol-4-yl)-4-pyridin-2-yl-2-(1,2,3,6-tetrahydropyridin-4-yl)-4,5-dihydroimidazo[1,5,4-de][1,4]benzoxazine] | – | IC50 (BRD4-BD1 [1]): < 100 nM; IC50 (BRD4-BD2 [2]): < 100 nM |
| – | Cc1noc(C)c1-c1ccc2nc(N3CCNCC3)n3c2c1OCC3c1ccccc1 (stereo not shown) [Example 40, 7-(3,5-Dimethylisoxazol-4-yl)-4-phenyl-2-piperazin-1-yl-4,5-dihydroimidazo[1,5,4-de][1,4]benzoxazine] | – | IC50 (BRD4-BD1 [3]): 100 to 1000 nM; IC50 (BRD4-BD2 [4]): < 100 nM |
| – | Cc1noc(C)c1-c1ccc2nc(N3CC[C@H](O)C3)n3c2c1OC[C@@H]3c1cccnc1 [Example 168B, (3S)-1-[(4S)-7-(3,5-Dimethylisoxazol-4-yl)-4-pyridin-3-yl-4,5-dihydroimidazo[1,5,4-de][1,4]benzoxazin-2-yl]pyrrolidin-3-ol] | – | IC50 (BRD4-BD1 [1]): < 100 nM; IC50 (BRD4-BD2 [2]): < 100 nM |
| – | CCOC(=O)C1Oc2c(-c3c(C)noc3C)ccc3[nH]c(=O)n(c23)C1c1ccccc1 (stereo not shown) [Example 23, Ethyl 7-(3,5-dimethylisoxazol-4-yl)-2-oxo-4-phenyl-1,2,4,5-tetrahydroimidazo[1,5,4-de][1,4]benzoxazine-5-carboxylate] | – | IC50 (BRD4-BD1 [3]): < 100 nM; IC50 (BRD4-BD2 [4]): < 100 nM |
| < 100 | Cc1noc(C)c1-c1ccc2[nH]c(=O)n3c2c1OC(C(=O)N(C)C)C3c1ccccc1 (single isomer, unassigned) [Example 47B, 7-(3,5-Dimethylisoxazol-4-yl)-N,N-dimethyl-2-oxo-4-phenyl-1,2,4,5-tetrahydroimidazo [1,5,4-de][1,4]benzoxazine-5-carboxamide] | 100 to 1000 | – |
| – | CC(=O)NCC1(c2ccccn2)COc2c(-c3c(C)noc3C)ccc3[nH]c(=O)n1c23 (stereo not shown) [Example 72, N-{[7-(3,5-Dimethylisoxazol-4-yl)-2-oxo-4-pyridin-2-yl-1,2,4,5-tetrahydroimidazo[1,5,4-de][1,4]benzoxazin-4-yl]methyl}acetamide 2,2,2-trifluoroacetate] | 100 to 1000 | IC50 (BRD4-BD2 [2]): < 100 nM |
| < 100 | CC(=O)NCc1ncccc1C1COc2c(-c3c(C)noc3C)ccc3[nH]c(=O)n1c23 (stereo not shown) [Example 131, N-({3-[7-(3,5-Dimethylisoxazol-4-yl)-2-oxo-1,2,4,5-tetrahydroimidazo[1,5,4-de][1,4]benzoxazin-4-yl]pyridin-2-yl}methyl)acetamide] | < 100 | – |
| < 100 | Cc1noc(C)c1-c1ccc2nc(C3=CCCNC3)n3c2c1OC[C@@H]3c1ccccn1 [Example 107, (4S)-7-(3,5-dimethylisoxazol-4-yl)-4-pyridin-2-yl-2-(1,2,5,6-tetrahydropyridin-3-yl)-4,5-dihydroimidazo[1,5,4-de][1,4]benzoxazine] | < 100 | – |

| SMILES | IC50 (BRD4-BD2 [2]; [6]) [nM] | IC50 (BRD4-BD1 [1]; [5]) [nM] | also measured |
| --- | --- | --- | --- |
| Cc1noc(C)c1-c1ccc2nc(N3CC[C@@H](O)C3)n3c2c1OCC3c1cccnc1 (single isomer, unassigned) [Example 159B] | < 100 | < 100 | – |
| Cc1noc(C)c1-c1ccc2nc(N3CC[C@@H](O)C3)n3c2c1OCC3c1cccnc1 (single isomer, unassigned) [Example 159D] | < 100 | < 100 | – |
| Cc1noc(C)c1-c1ccc2nc(N3CC[C@@H](O)C3)n3c2c1OCC3c1cccnc1 (single isomer, unassigned) [Example 159A] | 100 to 1000 | 1000 to 10000 | – |
| Cc1noc(C)c1-c1ccc2nc(N3CC[C@@H](O)C3)n3c2c1OCC3c1cccnc1 (single isomer, unassigned) [Example 159C] | < 100 | 100 to 1000 | – |
| Cc1noc(C)c1-c1ccc2nc(N3CC[C@@H](O)C3)n3c2c1OCC3c1cccnc1 (mixture of isomers) [Example 159E, (3R)-1-[7-(3,5-Dimethylisoxazol-4-yl)-4-pyridin-3-yl-4,5-dihydroimidazo[1,5,4-de][1,4]benzoxazin-2-yl]pyrrolidin-3-ol] | < 100 | < 100 | – |
